Data on one protein can be found in PMC2581579 (The Journal of Biological Chemistry, 2008).

The data set concerns the molecule itself. As to the kind of experiment: SEC. On the technique in general: Size exclusion chromatography separates by hydrodynamic size, large species first.

B1: wild type ferritin light chain (WT-FTL) homopolymer (natural protein, human, UniProt P02792 1-175, looked up)
chain: MSSQIRQNYSTDVEAAVNSLVNLYLQASYTYLSLGFYFDRDDVALEGVSHFFRELAEEKREGYERLLKMQNQRGGRALFQDIKKPAEDEWGKTPDAMKAAMALEKKLNQALLDLHALGSARTDPHLCDFLETHFLDEEVKLIKKMGDHLTNLHRLGGPEAGLGEYLFERLTLKHD
As for B1, the stoichiometry N – broadly, a count of units in the complex or per binding partner – came out at 24.
